Screening data from PubChem BioAssay.
This is a sample that favours compounds with a hit; in the whole collection about 2.8% have one here.
miR-122 sensor = inhibitors of miR-122 in Huh7 cells. Huh7 miR-122 Renilla luciferase sensor, 48 h; neutral wells = 0, positive control = 100. activation (reporter increase), % at 12.5 µM. actives 0.3% (n = 340,000). AID 602342;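 active = mean replicate activation score at least 90 and every replicate individually at or above 90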;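 note: higher luciferase means less miR-122 activity so hits act as miR-122 inhibitors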
esBAF inh = inhibitors of esBAF chromatin remodeling in mouse ES cells; Bmi1-luciferase knock-in reporter, 24 h; 100% = twice the neutral-well signal; reporter increase, % at 12.5 µM; actives 2% (n = 350,000); in the data active = activation above about 40%;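 note: 0% = median of the plate's neutral control wells and 100% = double that signal; a rise in the Bmi1 reporter signal indicates esBAF inhibition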
PglD DTNB = blocks C. jejuni PglD acetyltransferase activity; actives 0.098% (n = 360,000); AID 602405; purified PglD enzyme, DTNB colorimetric CoA detection; inhibition, % at 12.5 µM; in the data active = inhibition above about 16%, passing the limit was not always enough
Yeast UUG start = modulators of start codon recognition fidelity in yeast; S. cerevisiae UUG-firefly luciferase reporter, luminescence/redox ratio; AID 602363; 350,000 tested, 0.13% active; activity score, % at 18.7 µM;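 active = replicate mean at a twofold rise or more, about +100% in these data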;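 also: firefly luciferase made from a UUG start codon reports start codon fidelity; reporter light over untreated wells divided by growth signal over untreated wells; some hits fall short of that in this replicate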
Wnt bcat act = Wnt/beta-catenin pathway activation | Wnt/beta-catenin reporter cell assay, activator, plate reader | activation, % at 9.35 µM | actives 1.2% (n = 300,000); in the data active = activation above about 30%, passing the limit was not always enough;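 note: 0% = neutral control wells and 100% = positive control wells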
MITF TRPM1 HTS = MITF TRPM1 promoter activation in melanoma cells; SK-MEL-5 TRPM1-promoter luciferase, 24 h; % of positive control, neutral wells = 0; activation, % at 12.5 µM; actives 0.75% (n = 300,000);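 active = mean activation of at least 80% with every replicate also reaching 80%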;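 note: 0% = neutral control wells and 100% = parthenolide positive control wells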
The depositor's hits bear a star; · = no result given; [ ] = remark or other dose.

#1 CC1CCN(C(=O)c2cc(-c3ccc(Cl)c(Cl)c3)on2)CC1
#2 COCCNC(=O)c1cc(-c2ccc(Cl)c(Cl)c2)on1
#3 COc1ccc(S(=O)(=O)Nc2ccc3c(c2)C(=O)N([C@@H](C)CO)C[C@@H](C)[C@H](CN(C)S(=O)(=O)c2c(C)noc2C)OCCCC[C@@H](C)O3)cc1
#4 O=C1c2cccc3c(N4CCCCC4)ccc(c23)C(=O)N1CCO
#5 COc1cccc(C(=O)Nc2ccc3c(c2)C(=O)N(C)C[C@H](OC)[C@H](C)CN(C)[C@@H](C)CO3)c1
#6 Nc1cc2c(cc1Cl)-c1ccccc1C2=NO

Screen / compound no.	1	2	3	4	5	6
PglD DTNB	1	1	5	4	5	-2
Yeast UUG start	-20	-16	-4	-5	-7	-13
miR-122 sensor	-7	-4	-12[16.7 µM]	-4	-12[16.7 µM]	·
MITF TRPM1 HTS	67	45	·	59	·	55
Wnt bcat act	·	8	·	53*	·	-3
esBAF inh	28	52*	9	72*	4	52*

#7 O=C(NCCc1ccccc1)c1ccc(Cl)nc1
#8 CC1CCN(c2ccc(C(=O)NCCc3ccccc3)cn2)CC1
#9 O=C(COC(=O)c1ccc(Cl)nc1)NCCc1ccc(Cl)cc1
#10 CC1CCN(S(=O)(=O)CCNC(=O)c2ccccc2)CC1
#11 C[C@@H]1CN([C@H](C)CO)C(=O)Cc2cc(NS(=O)(=O)c3cccs3)ccc2O[C@@H]1CN(C)C(=O)NC1CCCCC1
#12 COc1ccc(S(=O)(=O)N[C@@H]2CC[C@H](CC(=O)N3CCC(Cc4ccccc4)CC3)O[C@H]2CO)cc1

Screen / compound no.	7	8	9	10	11	12
PglD DTNB	-4	-4	-4	4	3	3
Yeast UUG start	-16	-5	-9	8	15	·
miR-122 sensor	-13	7	-8	-5	3[16.7 µM]	·
MITF TRPM1 HTS	59	65	-1	-4	·	·
Wnt bcat act	39*	·	-2	-4	·	·
esBAF inh	-7	50*	-10	3	4	13

#13 COc1ccc(NC(=O)Nc2cccc3c2O[C@H](CN(C)C(=O)Nc2cccc4ccccc24)[C@H](C)CN([C@@H](C)CO)C3=O)cc1
#14 COc1cc(/C=N/NC(=S)NC2CC3CC2C2C=CCC32)ccc1O (stereo unspecified)
#15 CCNC(=O)C[C@@H]1CC[C@@H]2[C@@H](COc3ccc(NS(=O)(=O)c4ccccc4C)cc3C(=O)N2C)O1
#16 Cc1cc2ncn(CCOc3ccccc3)c2cc1C
#17 C[C@@H]1CN([C@H](C)CO)C(=O)c2cccc(NC(=O)C3CCOCC3)c2O[C@H]1CN(C)C(=O)NC1CCCCC1
#18 COC(=O)c1ccsc1NC(=O)CCc1ccccc1

Screen / compound no.	13	14	15	16	17	18
PglD DTNB	2	·	1	-2	3	1
Yeast UUG start	0	·	-5	-24	10	11
miR-122 sensor	-3[16.7 µM]	2	11[16.7 µM]	-3	-3[16.7 µM]	-5
MITF TRPM1 HTS	·	·	·	56	·	34
Wnt bcat act	·	20	·	·	·	18
esBAF inh	0	48*	-3	83*	5	48*

#19 Cc1ccc(C(=O)O)cc1NC(=S)NC(=O)c1ccc(-c2ccccc2)cc1
#20 CSc1nnc(NC(=O)CCc2ccccc2)s1
#21 Cc1nc(NC(=S)NC(=O)c2ccccc2)sc1C
#22 Cc1nc(NC(=O)c2ccccc2)sc1C
#23 Cc1nc(NC(=O)CCc2ccccc2)sc1C
#24 COc1cccc(S(=O)(=O)N[C@H]2CC[C@@H](CC(=O)NCc3ccccc3)O[C@H]2CO)c1

Screen / compound no.	19	20	21	22	23	24
PglD DTNB	0	0	8	0	-141	0
Yeast UUG start	12	-24	-8	-24	-17	-6
miR-122 sensor	-3	-9	-3	-7	0	·
MITF TRPM1 HTS	18	·	57	·	66	·
Wnt bcat act	11	·	1	4	5	·
esBAF inh	62*	12	45*	6	57*	-3

#25 COCC#Cc1ccc2c(c1)O[C@@H](CN(C)Cc1ccccn1)[C@H](C)CN([C@@H](C)CO)S2(=O)=O
#26 CC(C)NC(=O)N(C)C[C@@H]1Oc2ncc(C#CCN(C)C)cc2C(=O)N([C@H](C)CO)C[C@@H]1C
#27 C[C@H]1CN([C@@H](C)CO)C(=O)c2cccc(NC(=O)Nc3cccc4ccccc34)c2O[C@@H]1CN(C)S(C)(=O)=O
#28 Cc1cc(C)c(NC(=S)NC(=O)c2ccccc2)cc1C
#29 Cc1ccc(C(=O)NC(=S)Nc2c(C)ccc3nsnc23)cc1
#30 Cc1nc(NC(=O)c2csc3ccccc23)sc1C

Screen / compound no.	25	26	27	28	29	30
PglD DTNB	10	0	1	3	·	-4
Yeast UUG start	·	39	6	-2	·	-51
miR-122 sensor	25[16.7 µM]	2[16.7 µM]	-1[16.7 µM]	·	·	8
MITF TRPM1 HTS	·	·	·	·	-12	30
Wnt bcat act	·	·	·	34*	·	42*
esBAF inh	-12	-1	4	·	·	-3

#31 Cc1ccc(C(=O)NC(=S)Nc2cccc3nsnc23)cc1
#32 Cc1c(Cl)cccc1NC(=S)NC(=O)c1ccccc1
#33 C[C@@H]1CN([C@H](C)CO)C(=O)c2cc(NC(=O)Cc3ccccc3)ccc2O[C@@H](C)CCCCO[C@@H]1CN(C)CC1CCCCC1
#34 C[C@@H]1CCCCO[C@H](CN(C)S(=O)(=O)c2ccc(Cl)cc2)[C@@H](C)CN([C@@H](C)CO)C(=O)c2cc(NC(=O)NC3CCCCC3)ccc2O1
#35 CN1C(=O)c2cc(NC(=O)Nc3ccccc3)ccc2OC[C@@H]2O[C@H](CC(=O)O)CC[C@@H]21
#36 O=C(Nc1ccccc1)C(=O)Nc1ccc2c(c1)N(C(=O)C1CC1)CCC2

Screen / compound no.	31	32	33	34	35	36
PglD DTNB	3	-7	2	-4	2	2
Yeast UUG start	-15	10	21	1	·	-31
miR-122 sensor	-3	-7	5[16.7 µM]	-3[16.7 µM]	·	·
MITF TRPM1 HTS	9	·	·	·	·	92*
Wnt bcat act	·	0	·	·	·	42*
esBAF inh	63*	60*	-1	-6	3	·

Next part, overlapping the part above by 4 compounds.
#33 C[C@@H]1CN([C@H](C)CO)C(=O)c2cc(NC(=O)Cc3ccccc3)ccc2O[C@@H](C)CCCCO[C@@H]1CN(C)CC1CCCCC1
#34 C[C@@H]1CCCCO[C@H](CN(C)S(=O)(=O)c2ccc(Cl)cc2)[C@@H](C)CN([C@@H](C)CO)C(=O)c2cc(NC(=O)NC3CCCCC3)ccc2O1
#35 CN1C(=O)c2cc(NC(=O)Nc3ccccc3)ccc2OC[C@@H]2O[C@H](CC(=O)O)CC[C@@H]21
#36 O=C(Nc1ccccc1)C(=O)Nc1ccc2c(c1)N(C(=O)C1CC1)CCC2
#37 C[C@H](CO)N1C[C@H](C)[C@H](CN(C)Cc2ccc(C(=O)O)cc2)OCCCC[C@H](C)Oc2ccc(NC(=O)CCC(F)(F)F)cc2C1=O
#38 O=C(Nc1cnc2ccccn2c1=O)c1ccc(Cl)cc1
#39 CC(C)NC(=O)N(C)C[C@H]1OCCCC[C@H](C)Oc2ccc(NC(=O)Cc3ccccc3)cc2C(=O)N([C@H](C)CO)C[C@@H]1C
#40 O=C(COC(=O)c1c2c(nc3ccccc13)CCN(Cc1ccccc1)C2)Nc1c(F)cccc1F
#41 NCC[C@H]1CC[C@@H](NC(=O)CCN2CCCCC2)[C@H](CO)O1
#42 C[C@H](O)C#Cc1cnc2c(c1)C(=O)N([C@@H](C)CO)C[C@H](C)[C@H](CN(C)C(=O)Cc1ccccn1)O2

Screen / compound no.	33	34	35	36	37	38	39	40	41	42
PglD DTNB	2	-4	2	2	1	-3	0	-4	-2	0
Yeast UUG start	21	1	·	-31	-5	-17	·	7	-22	-6
miR-122 sensor	5[16.7 µM]	-3[16.7 µM]	·	·	4[16.7 µM]	-8	2[16.7 µM]	175*	·	-4[16.7 µM]
MITF TRPM1 HTS	·	·	·	92*	·	86*	·	-5	·	·
Wnt bcat act	·	·	·	42*	·	·	·	·	·	·
esBAF inh	-1	-6	3	·	-5	43*	·	·	-1	3

#43 Cc1ccc(CN2C(=O)C(C)(C)Oc3ccc(C(=O)N4CCCCC4)cc32)cc1
#44 CC1(C)Oc2ccc(C(=O)N3CCCCC3)cc2N(CC(=O)NCc2ccccc2)C1=O
#45 c1ccc(CCc2nc(-c3ccccn3)no2)cc1
#46 CCOc1ccc(Cc2nc(-c3nonc3N)no2)cc1OCC
#47 Fc1ccc(OCc2nc(-c3ccc(Br)o3)no2)c(F)c1
#48 Clc1ccccc1OCc1nc(-c2ccc(Br)o2)no1
#49 Nc1nonc1-c1noc(COc2ccccc2Cl)n1

Screen / compound no.	43	44	45	46	47	48	49
PglD DTNB	-2	-2	0	-1	2	-6	2
Yeast UUG start	10	6	-14	6	-17	-9	-7
miR-122 sensor	318*	-1	-1	5	-5	7	-6
MITF TRPM1 HTS	5	-3	128*	1	39	·	113*
Wnt bcat act	-1	-3	·	·	1	16	43*
esBAF inh	-4	-3	35	·	34	54*	·
